Experiment: Solubility in water and organic solvent
Type: physicochemical

Substance: carboxyethylgermanium sesquioxide (GeCH2 CH2 COOH)2 O3
- solubility in organic solvent (organic solvent miscible with water, such as acetone or alcohol): insoluble in an organic solvent at all
- solubility in water (water): slightly soluble in water
